{
  "sequences": {"note": "Protein sequences, listed by entry. Tags and fused reporters are not part of them. Lines headed by an entry give the natural chain unless they say otherwise; changes in a name come on top.", "UniProt P22303": "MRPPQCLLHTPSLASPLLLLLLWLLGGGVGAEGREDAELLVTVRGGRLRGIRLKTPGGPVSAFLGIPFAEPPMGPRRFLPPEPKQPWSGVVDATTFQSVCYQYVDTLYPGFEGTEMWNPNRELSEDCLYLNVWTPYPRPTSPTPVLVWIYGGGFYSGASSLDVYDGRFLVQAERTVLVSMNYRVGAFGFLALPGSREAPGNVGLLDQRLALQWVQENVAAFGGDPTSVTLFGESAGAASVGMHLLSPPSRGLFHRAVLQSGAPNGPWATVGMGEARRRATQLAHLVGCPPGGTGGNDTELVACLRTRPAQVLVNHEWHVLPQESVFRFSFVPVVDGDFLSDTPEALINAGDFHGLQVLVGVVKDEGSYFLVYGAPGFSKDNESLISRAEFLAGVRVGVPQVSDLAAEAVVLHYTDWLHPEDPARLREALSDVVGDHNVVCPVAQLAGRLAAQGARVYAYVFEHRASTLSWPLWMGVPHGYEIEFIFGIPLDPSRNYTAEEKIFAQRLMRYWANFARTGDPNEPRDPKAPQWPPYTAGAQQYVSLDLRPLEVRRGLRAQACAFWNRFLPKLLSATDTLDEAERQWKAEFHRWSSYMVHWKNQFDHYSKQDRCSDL"},
  "source": "ChEMBL document CHEMBL1123431",
  "about": "“Nonquaternary cholinesterase reactivators. 4. Dialkylaminoalkyl thioesters of alpha-keto thiohydroximic acids as reactivators of ethyl methylphosphonyl- and 1,2,2-trimethylpropyl methylphosphonyl-acetylcholinesterase in vitro” (1986)",
  "key": {"[1]": {"biological_target": "Acetylcholinesterase (Homo sapiens) (UniProt P22303)", "experiment": "Maximum reactivation for GD-inhibited human erythrocyte (RBC) AChE by oximes"}, "[2]": {"biological_target": "Acetylcholinesterase (Homo sapiens) (UniProt P22303)", "experiment": "Reactivation of para-nitrophenyl methylphosphate (EPMP)-phosphonylated human erythrocyte AChE at pH 7.6"}, "[3]": {"biological_target": "Acetylcholinesterase (Homo sapiens) (UniProt P22303)", "experiment": "Reactivation of para-nitrophenyl methylyphosphate (EPMP)-phosphonylated human erythrocyte AChE"}, "[4]": {"biological_target": "Acetylcholinesterase (Homo sapiens) (UniProt P22303)", "experiment": "Bimolecular rate constant (kn) for reaction of the anionic (oximate) with 7.5 x 10 e-4 M acetylthiocholine (AcSCh) in 0.1 M phosphate buffer"}, "[5]": {"biological_target": "Acetylcholinesterase (Homo sapiens) (UniProt P22303)", "experiment": "Compound was evaluated for reactivation of para-nitrophenyl methylphosphate (EPMP)-phosphonylated human erythrocyte AChE"}, "[6]": {"biological_target": "Acetylcholinesterase (Homo sapiens) (UniProt P22303)", "experiment": "Compound was evaluated for reactivation of EPMP-Phosphorylated human AChE"}, "[7]": {"biological_target": "Acetylcholinesterase (Homo sapiens) (UniProt P22303)", "experiment": "Maximum reactivation for GD-inhibited human erythrocyte (RBC) AChE by oximes; No reactivation"}, "[8]": {"biological_target": "Acetylcholinesterase (Homo sapiens) (UniProt P22303)", "experiment": "Compound was evaluated for reactivation of EPMP-Phosphorylated human AChE of bimolecular rate constants reactivation in the limit of low concentration of oximate"}},
  "data": [
    {"smiles": "COc1ccc(C(=O)/C(=N/O)SCC[N+](C)(C)C)cc1", "values": [
      {"measurement": "Rmax", "setting": "[1]", "result": 5.6, "unit": "%"},
      {"measurement": "kHOX", "setting": "[2]", "result": 0.39, "unit": "M⁻¹ s⁻¹"},
      {"measurement": "kOX", "setting": "[3]", "result": 0.895, "unit": "M⁻¹ s⁻¹"},
      {"measurement": "kn", "setting": "[4]", "result": 0.877, "unit": "M⁻¹ s⁻¹"}
    ]},
    {"smiles": "CN(C)CCS/C(=N\\O)C(=O)c1ccc(Cl)cc1", "values": [
      {"measurement": "Rmax", "setting": "[1]", "result": 8, "unit": "%"},
      {"measurement": "kHOX", "setting": "[2]", "result": 0.647, "unit": "M⁻¹ s⁻¹"},
      {"measurement": "kOX", "setting": "[3]", "result": 1.26, "unit": "M⁻¹ s⁻¹"},
      {"measurement": "kn", "setting": "[4]", "result": 0.158, "unit": "M⁻¹ s⁻¹"}
    ]},
    {"smiles": "CCN(CC)CCS/C(=N\\O)C(=O)c1ccc(Br)cc1", "values": [
      {"measurement": "Rmax", "setting": "[1]", "result": 35, "unit": "%"},
      {"measurement": "kHOX", "setting": "[2]", "result": 0.978, "unit": "M⁻¹ s⁻¹"},
      {"measurement": "kOX", "setting": "[5]", "result": 1.2, "unit": "M⁻¹ s⁻¹"},
      {"measurement": "kn", "setting": "[4]", "result": 0.205, "unit": "M⁻¹ s⁻¹"}
    ]},
    {"smiles": "CN(C)CCS/C(=N\\O)C(=O)c1ccc(Br)cc1", "values": [
      {"measurement": "Rmax", "setting": "[1]", "result": 14.6, "unit": "%"},
      {"measurement": "kn", "setting": "[4]", "result": 0.42, "unit": "M⁻¹ s⁻¹"}
    ]},
    {"smiles": "CCN(CC)CCS/C(=N\\O)C(=O)c1ccccc1", "values": [
      {"measurement": "Rmax", "setting": "[1]", "result": 2.2, "unit": "%"},
      {"measurement": "kn", "setting": "[4]", "result": 0.105, "unit": "M⁻¹ s⁻¹"}
    ]},
    {"smiles": "C[n+]1ccccc1C=NO", "values": [
      {"measurement": "Rmax", "setting": "[1]", "result": 28.2, "unit": "%"},
      {"measurement": "kHOX", "setting": "[2]", "result": 11.9, "unit": "M⁻¹ s⁻¹"},
      {"measurement": "kOX", "setting": "[3]", "result": 41.3, "unit": "M⁻¹ s⁻¹"},
      {"measurement": "kn", "setting": "[4]", "result": 0.84, "unit": "M⁻¹ s⁻¹"}
    ]},
    {"smiles": "C[N+](C)(C)CCS/C(=N\\O)C(=O)c1ccc(Cl)cc1", "values": [
      {"measurement": "kn", "setting": "[4]", "result": 0.155, "unit": "M⁻¹ s⁻¹"}
    ]},
    {"smiles": "Cc1ccc(C(=O)/C(=N/O)SCC[N+](C)(C)C)cc1", "values": [
      {"measurement": "kHOX", "setting": "[2]", "result": 0.683, "unit": "M⁻¹ s⁻¹"},
      {"measurement": "kOX", "setting": "[3]", "result": 1.32, "unit": "M⁻¹ s⁻¹"},
      {"measurement": "kn", "setting": "[4]", "result": 0.387, "unit": "M⁻¹ s⁻¹"}
    ]},
    {"smiles": "CC[N+](C)(CC)CCS/C(=N\\O)C(=O)c1ccc(OC)cc1", "values": [
      {"measurement": "Rmax", "setting": "[1]", "result": 8.5, "unit": "%"},
      {"measurement": "kHOX", "setting": "[2]", "result": 0.54, "unit": "M⁻¹ s⁻¹"},
      {"measurement": "kOX", "setting": "[3]", "result": 1.22, "unit": "M⁻¹ s⁻¹"},
      {"measurement": "kn", "setting": "[4]", "result": 0.993, "unit": "M⁻¹ s⁻¹"}
    ]},
    {"smiles": "CN(C)CCCS/C(=N\\O)C(=O)c1ccc(Br)cc1", "values": [
      {"measurement": "Rmax", "setting": "[1]", "result": 4.6, "unit": "%"},
      {"measurement": "kn", "setting": "[4]", "result": 0.777, "unit": "M⁻¹ s⁻¹"}
    ]},
    {"smiles": "CCN(CC)CCS/C(=N\\O)C(=O)c1ccc(C#N)cc1", "values": [
      {"measurement": "kHOX", "setting": "[2]", "result": 0.763, "unit": "M⁻¹ s⁻¹"},
      {"measurement": "kOX", "setting": "[3]", "result": 0.963, "unit": "M⁻¹ s⁻¹"},
      {"measurement": "kn", "setting": "[4]", "result": 0.0738, "unit": "M⁻¹ s⁻¹"}
    ]},
    {"smiles": "C[N+](C)(C)CCS/C(=N\\O)C(=O)c1ccc(F)cc1", "values": [
      {"measurement": "kHOX", "setting": "[2]", "result": 0.952, "unit": "M⁻¹ s⁻¹"},
      {"measurement": "kOX", "setting": "[3]", "result": 2.23, "unit": "M⁻¹ s⁻¹"},
      {"measurement": "kn", "setting": "[4]", "result": 0.263, "unit": "M⁻¹ s⁻¹"}
    ]},
    {"smiles": "CC[N+](C)(CC)CCS/C(=N\\O)C(=O)c1ccc(C#N)cc1", "values": [
      {"measurement": "kHOX", "setting": "[2]", "result": 1.39, "unit": "M⁻¹ s⁻¹"},
      {"measurement": "kOX", "setting": "[3]", "result": 1.57, "unit": "M⁻¹ s⁻¹"},
      {"measurement": "kn", "setting": "[4]", "result": 0.073, "unit": "M⁻¹ s⁻¹"}
    ]},
    {"smiles": "CCN(CC)CCS/C(=N\\O)C(=O)c1ccc(OC)cc1", "values": [
      {"measurement": "kHOX", "setting": "[2]", "result": 0.605, "unit": "M⁻¹ s⁻¹"},
      {"measurement": "kn", "setting": "[4]", "result": 1.25, "unit": "M⁻¹ s⁻¹"},
      {"measurement": "kOX", "setting": "[6]", "result": 1.28, "unit": "M⁻¹ s⁻¹"},
      {"measurement": "Rmax", "setting": "[7]", "result": "No reactivation"}
    ]},
    {"smiles": "C[N+](C)(C)CCS/C(=N\\O)C(=O)c1ccc(Br)cc1", "values": [
      {"measurement": "Rmax", "setting": "[1]", "result": 51.8, "unit": "%"},
      {"measurement": "kHOX", "setting": "[2]", "result": 0.863, "unit": "M⁻¹ s⁻¹"},
      {"measurement": "kOX", "setting": "[3]", "result": 1.3, "unit": "M⁻¹ s⁻¹"},
      {"measurement": "kn", "setting": "[4]", "result": 0.332, "unit": "M⁻¹ s⁻¹"}
    ]},
    {"smiles": "Cc1ccc(C(=O)/C(=N/O)SCCN(C)C)cc1", "values": [
      {"measurement": "kHOX", "setting": "[2]", "result": 0.638, "unit": "M⁻¹ s⁻¹"},
      {"measurement": "kOX", "setting": "[3]", "result": 1.56, "unit": "M⁻¹ s⁻¹"},
      {"measurement": "kn", "setting": "[4]", "result": 0.295, "unit": "M⁻¹ s⁻¹"}
    ]},
    {"smiles": "CC[N+](C)(CC)CCS/C(=N\\O)C(=O)c1ccc(Cl)cc1", "values": [
      {"measurement": "Rmax", "setting": "[1]", "result": 59.4, "unit": "%"},
      {"measurement": "kHOX", "setting": "[2]", "result": 2.47, "unit": "M⁻¹ s⁻¹"},
      {"measurement": "kOX", "setting": "[3]", "result": 3.38, "unit": "M⁻¹ s⁻¹"},
      {"measurement": "kn", "setting": "[4]", "result": 0.253, "unit": "M⁻¹ s⁻¹"}
    ]},
    {"smiles": "CCN(CC)CCS/C(=N\\O)C(=O)c1ccc(Cl)cc1", "values": [
      {"measurement": "Rmax", "setting": "[1]", "result": 28.6},
      {"measurement": "kHOX", "setting": "[2]", "result": 0.75, "unit": "M⁻¹ s⁻¹"},
      {"measurement": "kOX", "setting": "[3]", "result": 1.25, "unit": "M⁻¹ s⁻¹"},
      {"measurement": "kn", "setting": "[4]", "result": 0.253, "unit": "M⁻¹ s⁻¹"}
    ]},
    {"smiles": "CC[N+](C)(CC)CCS/C(=N\\O)C(=O)c1ccc(F)cc1", "values": [
      {"measurement": "kHOX", "setting": "[2]", "result": 2.77, "unit": "M⁻¹ s⁻¹"},
      {"measurement": "kOX", "setting": "[3]", "result": 4.19, "unit": "M⁻¹ s⁻¹"},
      {"measurement": "kn", "setting": "[4]", "result": 0.256, "unit": "M⁻¹ s⁻¹"}
    ]},
    {"smiles": "CC(C)N(CCS/C(=N\\O)C(=O)c1ccc(Cl)cc1)C(C)C", "values": [
      {"measurement": "kHOX", "setting": "[2]", "result": 0.813, "unit": "M⁻¹ s⁻¹"},
      {"measurement": "kOX", "setting": "[3]", "result": 1.14, "unit": "M⁻¹ s⁻¹"},
      {"measurement": "kn", "setting": "[4]", "result": 0.205, "unit": "M⁻¹ s⁻¹"}
    ]},
    {"smiles": "COc1ccc(C(=O)/C(=N/O)SCCN(C)C)cc1", "values": [
      {"measurement": "kHOX", "setting": "[2]", "result": 0.198, "unit": "M⁻¹ s⁻¹"},
      {"measurement": "kn", "setting": "[4]", "result": 1.16, "unit": "M⁻¹ s⁻¹"},
      {"measurement": "kOX", "setting": "[8]", "result": 0.595, "unit": "M⁻¹ s⁻¹"},
      {"measurement": "Rmax", "setting": "[7]", "result": "No reactivation"}
    ]}
  ]
}
